{
  "source": "IntAct's records for PubMed 26342079",
  "parents": {"B1": {"name": "LYR motif-containing protein 4 (Homo sapiens), Q9HD34 (parent)", "chain": "MAASSRAQVLSLYRAMLRESKRFSAYNYRTYAVRRIRDAFRENKNVKDPVEIQTLVNKAKRDLGVIRRQVHIGQLYSTDKLIIENRDMPRT", "partner": "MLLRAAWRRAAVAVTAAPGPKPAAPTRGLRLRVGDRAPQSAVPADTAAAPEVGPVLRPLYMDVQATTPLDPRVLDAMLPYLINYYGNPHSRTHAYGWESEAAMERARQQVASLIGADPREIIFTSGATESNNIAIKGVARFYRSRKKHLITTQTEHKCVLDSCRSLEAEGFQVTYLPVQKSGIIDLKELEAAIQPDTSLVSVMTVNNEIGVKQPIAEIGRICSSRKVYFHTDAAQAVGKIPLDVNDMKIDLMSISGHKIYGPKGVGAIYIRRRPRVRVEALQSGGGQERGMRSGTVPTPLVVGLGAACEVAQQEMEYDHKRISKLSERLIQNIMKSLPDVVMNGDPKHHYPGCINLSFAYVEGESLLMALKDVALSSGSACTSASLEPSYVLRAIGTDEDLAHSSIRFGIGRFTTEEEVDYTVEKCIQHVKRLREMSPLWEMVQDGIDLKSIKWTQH"}},
  "conditions_in_all_cases": "with nfs1_human NFS1, Q9Y697",
  "key": {"nfs1_human NFS1, Q9Y697 [1]": {"variants_of": "B1"}, "nfs1_human NFS1, Q9Y697 [2]": {"variants_of": "B1", "remark": "listed apart in the source"}, "nfs1_human NFS1, Q9Y697 [3]": {"variants_of": "B1", "remark": "listed apart in the source"}},
  "data": [
    {"variant": "MAASSRAQVLSLYRAMLRESKRFSAYNYRTYAVRRIRDAARENKNVKDPVEIQTLVNKAKRDLGVIRRQVHIGQLYSTDKLIIENRDMPRT", "note": "[F40A]", "values": [
      {"measurement": "effect of a mutation on the interaction", "setting": "nfs1_human NFS1, Q9Y697 [1]", "result": "decreasing interaction strength"},
      {"measurement": "effect of a mutation on the interaction", "setting": "nfs1_human NFS1, Q9Y697 [2]", "result": "disrupting interaction strength"}
    ]},
    {"variant": "MAASSRAQVLSLYRAMLRESKRFSAYNYRTYAVRRIRDAFRENKNVKDPVEIQTLVNKAKRDAGVIRRQVHIGQLYSTDKLIIENRDMPRT", "note": "[L63A]", "values": [
      {"measurement": "effect of a mutation on the interaction", "setting": "nfs1_human NFS1, Q9Y697 [1]", "result": "decreasing interaction strength"}
    ]},
    {"variant": "MAASSRAQVLSLYRAMLRESKRFSAYNYRTYAVRRIRDAFRENKNVKDPVEIQTLVNKAKRDLGVIRAQVHIGQLYSTDKLIIENRDMPRT", "note": "[R68A]", "values": [
      {"measurement": "effect of a mutation on the interaction", "setting": "nfs1_human NFS1, Q9Y697 [1]", "result": "decreasing interaction strength"},
      {"measurement": "effect of a mutation on the interaction", "setting": "nfs1_human NFS1, Q9Y697 [2]", "result": "disrupting interaction strength"}
    ]},
    {"variant": "MAASSRAQVLSLYRAMLRESKRFSAYNYRTYAVRRIRDAFRENKNVKDPVEIQTLVNKAKRDLGVIRRAVHIGQLYSTDKLIIENRDMPRT", "note": "[Q69A]", "values": [
      {"measurement": "effect of a mutation on the interaction", "setting": "nfs1_human NFS1, Q9Y697 [1]", "result": "decreasing interaction strength"},
      {"measurement": "effect of a mutation on the interaction", "setting": "nfs1_human NFS1, Q9Y697 [2]", "result": "disrupting interaction strength"}
    ]},
    {"variant": "MAASSRAQVLSLYRAMLRESKRFSAYNYRTYAVRRIRDAFRENKNVKDPVEIQTLVNKAKRDLGVIRRQVHAGQLYSTDKLIIENRDMPRT", "note": "[I72A]", "values": [
      {"measurement": "effect of a mutation on the interaction", "setting": "nfs1_human NFS1, Q9Y697 [1]", "result": "decreasing interaction strength"},
      {"measurement": "effect of a mutation on the interaction", "setting": "nfs1_human NFS1, Q9Y697 [2]", "result": "disrupting interaction strength"}
    ]},
    {"variant": "MAASSRAQVLSLYRAMLRESKRFSAYNYRTYAVRRIRDAFRENKNVKDPVEIQTLVNKAKRDLGVIRRQVHIGQLASTDKLIIENRDMPRT", "note": "[Y76A]", "values": [
      {"measurement": "effect of a mutation on the interaction", "setting": "nfs1_human NFS1, Q9Y697 [1]", "result": "decreasing interaction strength"},
      {"measurement": "effect of a mutation on the interaction", "setting": "nfs1_human NFS1, Q9Y697 [2]", "result": "disrupting interaction strength"}
    ]},
    {"variant": "MAASSRAQVLSLYRAMLRESKRFSAYNYRTYAVRRIRDAFRENKNVKDPVEIQTLVNKAKRDLGVIRRQVHIGQLYSTDKAIIENRDMPRT", "note": "[L81A]", "values": [
      {"measurement": "effect of a mutation on the interaction", "setting": "nfs1_human NFS1, Q9Y697 [1]", "result": "decreasing interaction strength"},
      {"measurement": "effect of a mutation on the interaction", "setting": "nfs1_human NFS1, Q9Y697 [2]", "result": "disrupting interaction strength"}
    ]},
    {"variant": "MAASSRAQVLSLYRAMLRESKRFSAYNYRTYAVRRIRDAFRENKNVKDPVEIQTLVNKAKRDLGVIRRQVHIGQLYSTDKLIIANRDMPRT", "note": "[E84A]", "values": [
      {"measurement": "effect of a mutation on the interaction", "setting": "nfs1_human NFS1, Q9Y697 [1]", "result": "decreasing interaction strength"},
      {"measurement": "effect of a mutation on the interaction", "setting": "nfs1_human NFS1, Q9Y697 [2]", "result": "disrupting interaction strength"}
    ]},
    {"variant": "MAASSRAQVLSLYRAMLRESKRFSAYNYRTYAVRRIRDAFRENKNVKDPVEIQTLVNKAKRDLGVIRLQVHIGQLYSTDKLIIENRDMPRT", "note": "[R68L]", "values": [
      {"measurement": "effect of a mutation on the interaction", "setting": "nfs1_human NFS1, Q9Y697 [3]", "result": "decreasing interaction strength"}
    ]}
  ]
}
